Results: ChEMBL document CHEMBL5512644 (Eur J Med Chem, 2024)

Amino acid sequences for entries named in this document (tags omitted). A change or cut given only in a name is not applied to a line headed by its entry.
UniProt Q9Y5X5: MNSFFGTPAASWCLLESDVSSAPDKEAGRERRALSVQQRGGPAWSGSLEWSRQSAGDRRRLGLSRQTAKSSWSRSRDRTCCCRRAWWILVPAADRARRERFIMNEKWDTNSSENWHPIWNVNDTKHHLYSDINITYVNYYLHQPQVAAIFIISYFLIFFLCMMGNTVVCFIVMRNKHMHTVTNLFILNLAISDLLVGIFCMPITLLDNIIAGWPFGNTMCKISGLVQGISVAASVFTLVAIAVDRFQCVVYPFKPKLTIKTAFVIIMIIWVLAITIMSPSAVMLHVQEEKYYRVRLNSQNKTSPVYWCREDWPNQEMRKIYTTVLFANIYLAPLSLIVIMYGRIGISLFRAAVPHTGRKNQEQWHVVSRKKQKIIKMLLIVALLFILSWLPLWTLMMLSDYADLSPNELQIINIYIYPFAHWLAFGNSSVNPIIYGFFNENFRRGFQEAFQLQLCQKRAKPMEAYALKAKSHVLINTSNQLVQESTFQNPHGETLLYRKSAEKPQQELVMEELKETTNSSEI
UniProt Q9GZQ6: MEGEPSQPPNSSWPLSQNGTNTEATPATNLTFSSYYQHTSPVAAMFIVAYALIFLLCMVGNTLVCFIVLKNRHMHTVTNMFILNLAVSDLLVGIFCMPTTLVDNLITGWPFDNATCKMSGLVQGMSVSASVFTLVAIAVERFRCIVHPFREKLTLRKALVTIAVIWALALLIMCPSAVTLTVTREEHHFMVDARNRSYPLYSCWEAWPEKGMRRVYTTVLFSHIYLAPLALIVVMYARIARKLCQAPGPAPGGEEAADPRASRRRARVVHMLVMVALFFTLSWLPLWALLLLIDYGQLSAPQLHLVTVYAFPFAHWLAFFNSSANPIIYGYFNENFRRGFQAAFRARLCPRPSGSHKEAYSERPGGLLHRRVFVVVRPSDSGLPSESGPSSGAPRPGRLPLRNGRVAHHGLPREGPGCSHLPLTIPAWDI

How the values were obtained:
[1] = molecular target: T1, Neuropeptide FF receptor 2 (Homo sapiens, UniProt Q9Y5X5); assay: Agonist activity at human NPFF2 receptor expressed in CHO cells assessed as inhibition of forskolin induced cAMP production upto 10 uM incubated for 30 mins by TR-FRET assay; format: functional, cell-based
[2] = molecular target: T1, Neuropeptide FF receptor 2; assay: Antagonist activity at human NPFF2 receptor expressed in CHO cells assessed as reversal of NPFF inhibition of forskolin-induced cAMP production incubated for 30 mins by TR-FRET assay; format: functional, cell-based
[3] = molecular target: T2, Neuropeptide FF receptor 1 (Homo sapiens, UniProt Q9GZQ6); assay: Agonist activity at human NPFF1 receptor expressed in CHO cells assessed as inhibition of forskolin induced cAMP production upto 10 uM incubated for 30 mins by TR-FRET assay; format: functional, cell-based
Homo sapiens = organism: Homo sapiens; assay: Selectivity ratio of Ki for displacement of [3H]NPVF from monoclonal human NPFF1 receptor expressed in CHO cells to Ki for displacement of [3H]-EYF from monoclonal human NPFF2 receptor expressed in CHO cells; format: cell-based
[4] = molecular target: T2, Neuropeptide FF receptor 1; assay: Antagonist activity at human NPFF1 receptor expressed in CHO cells assessed as reversal of NPFF inhibition of forskolin-induced cAMP production incubated for 30 mins by TR-FRET assay; format: functional, cell-based

Structure (SMILES) | Activity [1] | Activity [2] | Activity [3] | Ratio Ki (Homo sapiens) | Activity [4] | Activity ([4]; filed as antagonist)
O=C(CCN1CCCCC1)NCC1(Cc2cccc3ccccc23)CCN(Cc2ccccc2)CC1 | inactive | inactive | inactive | 8 | inactive | –
O=C(CN1CCC(Cc2ccccc2)CC1)NCC1(Nc2cccc3ccccc23)CCN(Cc2ccccc2)CC1 | inactive | inactive | inactive | – | – | Dose-Dependent Effect

Calls of active or inactive are those of the source. The rule behind the calls is not given here.
